By UniProt entry, the sequences of proteins in these tests, tags left out. Residues count along the entry.
UniProt Q9Y490, 309-401: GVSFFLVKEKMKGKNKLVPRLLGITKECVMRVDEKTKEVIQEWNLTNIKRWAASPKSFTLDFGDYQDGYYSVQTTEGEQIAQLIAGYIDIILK

According to PMC12102759 (Protein Science : A Publication of the Protein Society, 2025):

The sequences below were run against TLN1 PTB (Homo sapiens, UniProt Q9Y490).
Assay type: binding

Sequence	DMS-derived PSSM value of the single-substitution variant
TDERSWVYSPLHYSAQ L11G (TDERSWVYSPGHYSAQ)	0.01735
TDERSWVYSPLHYSAQ L11H (TDERSWVYSPHHYSAQ)	0.019
TDERSWVYSPLHYSAQ L11I (TDERSWVYSPIHYSAQ)	0.1158
TDERSWVYSPLHYSAQ L11K (TDERSWVYSPKHYSAQ)	0.005533
TDERSWVYSPLHYSAQ L11L	0.4566
TDERSWVYSPLHYSAQ L11M (TDERSWVYSPMHYSAQ)	0.02298
TDERSWVYSPLHYSAQ L11N (TDERSWVYSPNHYSAQ)	0.005496
TDERSWVYSPLHYSAQ L11P (TDERSWVYSPPHYSAQ)	0.007293
TDERSWVYSPLHYSAQ L11Q (TDERSWVYSPQHYSAQ)	0.001723
TDERSWVYSPLHYSAQ L11R (TDERSWVYSPRHYSAQ)	0.04001
TDERSWVYSPLHYSAQ L11S (TDERSWVYSPSHYSAQ)	0.001877
TDERSWVYSPLHYSAQ L11T (TDERSWVYSPTHYSAQ)	0.1092
TDERSWVYSPLHYSAQ L11V (TDERSWVYSPVHYSAQ)	0.0645
TDERSWVYSPLHYSAQ L11W (TDERSWVYSPWHYSAQ)	0.04442
TDERSWVYSPLHYSAQ L11Y (TDERSWVYSPYHYSAQ)	0.01142
TDERSWVYSPLHYSAQ P10A (TDERSWVYSALHYSAQ)	0.0572
TDERSWVYSPLHYSAQ P10D (TDERSWVYSDLHYSAQ)	0.02825
TDERSWVYSPLHYSAQ P10E (TDERSWVYSELHYSAQ)	0.01248
TDERSWVYSPLHYSAQ P10F (TDERSWVYSFLHYSAQ)	0.04613
TDERSWVYSPLHYSAQ P10G (TDERSWVYSGLHYSAQ)	0.05499
TDERSWVYSPLHYSAQ P10H (TDERSWVYSHLHYSAQ)	0.0683
TDERSWVYSPLHYSAQ P10I (TDERSWVYSILHYSAQ)	0.006309
TDERSWVYSPLHYSAQ P10K (TDERSWVYSKLHYSAQ)	0.1554

Sequence	DMS-derived PSSM value of the single-substitution variant
TDERSWVYSPLHYSAQ P10L (TDERSWVYSLLHYSAQ)	0.1545
TDERSWVYSPLHYSAQ P10M (TDERSWVYSMLHYSAQ)	0.02991
TDERSWVYSPLHYSAQ P10N (TDERSWVYSNLHYSAQ)	0.09594
TDERSWVYSPLHYSAQ P10P	0.1798
TDERSWVYSPLHYSAQ P10Q (TDERSWVYSQLHYSAQ)	0.02435
TDERSWVYSPLHYSAQ P10R (TDERSWVYSRLHYSAQ)	0.01859
TDERSWVYSPLHYSAQ P10S (TDERSWVYSSLHYSAQ)	0.01332
TDERSWVYSPLHYSAQ P10T (TDERSWVYSTLHYSAQ)	0.03225
TDERSWVYSPLHYSAQ P10V (TDERSWVYSVLHYSAQ)	0.01176
TDERSWVYSPLHYSAQ P10W (TDERSWVYSWLHYSAQ)	0.002007
TDERSWVYSPLHYSAQ P10Y (TDERSWVYSYLHYSAQ)	0.008467
TDERSWVYSPLHYSAQ R4A (TDEASWVYSPLHYSAQ)	0.1059
TDERSWVYSPLHYSAQ R4D (TDEDSWVYSPLHYSAQ)	0.2233
TDERSWVYSPLHYSAQ R4E (TDEESWVYSPLHYSAQ)	0.03067
TDERSWVYSPLHYSAQ R4F (TDEFSWVYSPLHYSAQ)	0.02428
TDERSWVYSPLHYSAQ R4G (TDEGSWVYSPLHYSAQ)	0.05137
TDERSWVYSPLHYSAQ R4H (TDEHSWVYSPLHYSAQ)	0.0204
TDERSWVYSPLHYSAQ R4I (TDEISWVYSPLHYSAQ)	0.00064
TDERSWVYSPLHYSAQ R4K (TDEKSWVYSPLHYSAQ)	0.003744
TDERSWVYSPLHYSAQ R4L (TDELSWVYSPLHYSAQ)	0.1062
TDERSWVYSPLHYSAQ R4M (TDEMSWVYSPLHYSAQ)	0.01709
TDERSWVYSPLHYSAQ R4N (TDENSWVYSPLHYSAQ)	0.02052
TDERSWVYSPLHYSAQ R4P (TDEPSWVYSPLHYSAQ)	0.01303

Sequence	DMS-derived PSSM value of the single-substitution variant
TDERSWVYSPLHYSAQ R4Q (TDEQSWVYSPLHYSAQ)	0.05478
TDERSWVYSPLHYSAQ R4R	0.1255
TDERSWVYSPLHYSAQ R4S (TDESSWVYSPLHYSAQ)	0.08737
TDERSWVYSPLHYSAQ R4T (TDETSWVYSPLHYSAQ)	0.01177
TDERSWVYSPLHYSAQ R4V (TDEVSWVYSPLHYSAQ)	0.03649
TDERSWVYSPLHYSAQ R4W (TDEWSWVYSPLHYSAQ)	0.006906
TDERSWVYSPLHYSAQ R4Y (TDEYSWVYSPLHYSAQ)	0.06001
TDERSWVYSPLHYSAQ S5A (TDERAWVYSPLHYSAQ)	0.06991
TDERSWVYSPLHYSAQ S5D (TDERDWVYSPLHYSAQ)	0.1255
TDERSWVYSPLHYSAQ S5E (TDEREWVYSPLHYSAQ)	0.07535
TDERSWVYSPLHYSAQ S5F (TDERFWVYSPLHYSAQ)	0.003602
TDERSWVYSPLHYSAQ S5G (TDERGWVYSPLHYSAQ)	0.003016
TDERSWVYSPLHYSAQ S5H (TDERHWVYSPLHYSAQ)	0.02304
TDERSWVYSPLHYSAQ S5I (TDERIWVYSPLHYSAQ)	0.1035
TDERSWVYSPLHYSAQ S5K (TDERKWVYSPLHYSAQ)	0.01128
TDERSWVYSPLHYSAQ S5L (TDERLWVYSPLHYSAQ)	0.09095
TDERSWVYSPLHYSAQ S5M (TDERMWVYSPLHYSAQ)	0.07254
TDERSWVYSPLHYSAQ S5N (TDERNWVYSPLHYSAQ)	0.003923
TDERSWVYSPLHYSAQ S5P (TDERPWVYSPLHYSAQ)	0.0575
TDERSWVYSPLHYSAQ S5Q (TDERQWVYSPLHYSAQ)	0.01157
TDERSWVYSPLHYSAQ S5R (TDERRWVYSPLHYSAQ)	0.009424
